Columns and labels:
GluN1a/GluN2D NMDAR = GluN1a/GluN2D NMDAR (Rattus norvegicus, UniProt Q62645); type: cell-based; conditions: from Ki values
human GluK1 = human GluK1 (Homo sapiens, UniProt P39086); type: cell-based; conditions: from KB values

Sequences of proteins named here, by UniProt entry; tags and fusion partners are left off. Residues count along the entry.
UniProt Q62645, 28-1323: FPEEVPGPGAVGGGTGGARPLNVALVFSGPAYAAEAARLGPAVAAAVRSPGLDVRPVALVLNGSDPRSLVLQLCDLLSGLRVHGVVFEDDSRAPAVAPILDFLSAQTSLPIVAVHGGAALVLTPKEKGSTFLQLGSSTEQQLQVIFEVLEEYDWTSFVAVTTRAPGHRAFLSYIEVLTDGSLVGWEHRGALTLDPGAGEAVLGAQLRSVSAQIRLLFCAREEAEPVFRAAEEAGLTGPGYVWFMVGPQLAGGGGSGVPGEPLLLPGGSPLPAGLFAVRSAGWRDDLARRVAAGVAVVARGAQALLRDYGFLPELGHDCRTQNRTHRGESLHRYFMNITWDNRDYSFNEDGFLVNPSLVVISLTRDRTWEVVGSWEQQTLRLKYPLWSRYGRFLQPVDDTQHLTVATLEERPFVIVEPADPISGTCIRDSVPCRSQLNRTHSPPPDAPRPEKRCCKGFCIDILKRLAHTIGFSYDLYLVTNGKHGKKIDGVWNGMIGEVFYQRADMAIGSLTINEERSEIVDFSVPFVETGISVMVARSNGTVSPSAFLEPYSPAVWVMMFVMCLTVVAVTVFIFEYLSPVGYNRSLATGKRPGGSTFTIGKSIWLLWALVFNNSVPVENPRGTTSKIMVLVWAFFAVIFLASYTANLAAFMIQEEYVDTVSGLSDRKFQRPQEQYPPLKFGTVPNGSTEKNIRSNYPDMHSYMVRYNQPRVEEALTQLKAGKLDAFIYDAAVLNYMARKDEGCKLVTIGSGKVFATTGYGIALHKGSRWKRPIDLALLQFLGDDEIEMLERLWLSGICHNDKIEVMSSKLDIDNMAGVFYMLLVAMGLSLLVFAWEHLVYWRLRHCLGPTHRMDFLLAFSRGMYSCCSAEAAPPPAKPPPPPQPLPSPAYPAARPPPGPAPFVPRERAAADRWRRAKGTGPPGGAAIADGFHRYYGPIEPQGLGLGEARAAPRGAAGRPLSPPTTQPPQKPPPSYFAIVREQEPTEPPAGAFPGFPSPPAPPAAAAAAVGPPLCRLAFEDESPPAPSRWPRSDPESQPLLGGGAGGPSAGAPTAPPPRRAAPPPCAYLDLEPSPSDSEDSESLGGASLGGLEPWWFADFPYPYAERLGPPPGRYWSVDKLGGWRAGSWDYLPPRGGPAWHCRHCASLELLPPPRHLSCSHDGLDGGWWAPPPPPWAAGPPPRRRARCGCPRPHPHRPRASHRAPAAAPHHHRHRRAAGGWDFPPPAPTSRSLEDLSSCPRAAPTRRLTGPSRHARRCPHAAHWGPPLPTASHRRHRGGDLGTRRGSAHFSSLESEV
UniProt P39086, 31-905 isoform P39086-2 limits assumed: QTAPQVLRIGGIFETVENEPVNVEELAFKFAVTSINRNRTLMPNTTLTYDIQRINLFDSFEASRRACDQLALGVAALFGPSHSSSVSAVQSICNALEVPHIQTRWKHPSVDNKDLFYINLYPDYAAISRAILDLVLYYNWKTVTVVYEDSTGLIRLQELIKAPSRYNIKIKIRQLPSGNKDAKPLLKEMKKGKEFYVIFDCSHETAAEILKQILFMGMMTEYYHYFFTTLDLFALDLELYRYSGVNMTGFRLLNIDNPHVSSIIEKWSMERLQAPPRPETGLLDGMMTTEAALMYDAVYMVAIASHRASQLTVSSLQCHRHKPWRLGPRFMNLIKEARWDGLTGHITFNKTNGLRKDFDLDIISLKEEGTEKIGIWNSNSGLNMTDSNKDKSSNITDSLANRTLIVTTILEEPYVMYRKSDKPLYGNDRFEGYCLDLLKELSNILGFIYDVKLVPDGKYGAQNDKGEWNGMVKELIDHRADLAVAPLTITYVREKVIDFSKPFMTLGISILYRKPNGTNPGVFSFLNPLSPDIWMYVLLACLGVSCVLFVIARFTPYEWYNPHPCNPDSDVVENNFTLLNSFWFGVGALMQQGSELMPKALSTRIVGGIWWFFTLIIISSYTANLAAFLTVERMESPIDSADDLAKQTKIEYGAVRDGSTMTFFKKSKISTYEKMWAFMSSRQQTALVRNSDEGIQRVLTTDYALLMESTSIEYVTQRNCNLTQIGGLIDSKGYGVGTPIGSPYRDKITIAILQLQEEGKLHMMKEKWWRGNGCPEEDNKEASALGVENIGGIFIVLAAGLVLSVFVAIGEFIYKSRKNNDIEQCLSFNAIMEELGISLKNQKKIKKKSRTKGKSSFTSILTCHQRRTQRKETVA

SMILES | selectivity for GluN2D versus GluN2A (GluN1a/GluN2D NMDAR) | selectivity for GluN2D versus GluN2B (GluN1a/GluN2D NMDAR) | fold lower affinity for GluK1 compared to 34b (human GluK1)
O=C(O)[C@H]1NCCN(C(=O)c2ccc3cc(-c4ccccc4)ccc3c2)[C@H]1C(=O)O (relative stereo) [Compound 18d, (2R*,3S*)-1-(6-Phenylnaphthalene-2-carbonyl)piperazine-2,3-dicarboxylic acid] | > 10 fold | > 10 fold | 
O=C(O)[C@H]1NCCN(C(=O)c2ccc(C#Cc3ccccc3)cc2)[C@H]1C(=O)O [Compound 18k] |  |  | approximately 2 fold
